Results as given in PubChem BioAssay (NCI).
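Cells were grown in 96-well plates and exposed to each compound for 48 hours at five concentrations; endpoints were interpolated linearly between bracketing concentrations, or set to the highest concentration if not reached. GI50 is the concentration that inhibits growth by half. TGI marks complete inhibition of growth.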

How the values were obtained:
Test in all cases: NCI-60 cell line screen, 48 h
CCRF-CEM leukemia = system: CCRF-CEM leukemia
SNB-19 CNS = system: SNB-19 CNS
RXF 393 renal = system: RXF 393 renal
HCT-15 colon = system: HCT-15 colon
SN12C renal = system: SN12C renal
UACC-257 melanoma = system: UACC-257 melanoma
NCI/ADR-RES ovarian = system: NCI/ADR-RES ovarian
M14 melanoma = system: M14 melanoma
SF-268 CNS = system: SF-268 CNS
HS 578T breast = system: HS 578T breast
OVCAR-4 ovarian = system: OVCAR-4 ovarian
SF-295 CNS = system: SF-295 CNS
UO-31 renal = system: UO-31 renal
HOP-92 NSCLC = system: HOP-92 NSCLC
NCI-H460 lung = system: NCI-H460 lung
TK-10 renal = system: TK-10 renal
SF-539 CNS = system: SF-539 CNS
MDA-N = system: MDA-N
SNB-75 CNS = system: SNB-75 CNS
HCC-2998 colon = system: HCC-2998 colon
OVCAR-5 ovarian = system: OVCAR-5 ovarian
SK-MEL-28 melanoma = system: SK-MEL-28 melanoma
SK-OV-3 ovarian = system: SK-OV-3 ovarian
PC-3 prostate = system: PC-3 prostate
HT29 colon = system: HT29 colon
BT-549 breast = system: BT-549 breast
A498 renal = system: A498 renal
NCI-H226 lung = system: NCI-H226 lung
MOLT-4 leukemia = system: MOLT-4 leukemia
KM12 colon = system: KM12 colon

`NC(=O)Nc1cc([As](=O)(O)O)cc(I)c1O` was tested, and the TGI (CCRF-CEM leukemia) was greater than 100 µM, the GI50 (SNB-19 CNS) was greater than 100 µM and the TGI (SNB-19 CNS) was greater than 100 µM. For the same molecule, the GI50 (RXF 393 renal) was greater than 100 µM, the TGI (RXF 393 renal) was greater than 100 µM and the GI50 (HCT-15 colon) was greater than 100 µM. For the same molecule, the TGI (HCT-15 colon) was greater than 100 µM, the GI50 (SN12C renal) was greater than 100 µM and the TGI (SN12C renal) was greater than 100 µM. The GI50 (UACC-257 melanoma) was greater than 100 µM, the TGI (UACC-257 melanoma) was greater than 100 µM and the GI50 (NCI/ADR-RES ovarian) was greater than 100 µM. For the same molecule, the TGI (NCI/ADR-RES ovarian) was greater than 100 µM, the GI50 (M14 melanoma) was greater than 100 µM and the TGI (M14 melanoma) was greater than 100 µM. The GI50 (SF-268 CNS) was greater than 100 µM, the TGI (SF-268 CNS) was greater than 100 µM and the GI50 (HS 578T breast) was greater than 100 µM. For the same molecule, the TGI (HS 578T breast) was greater than 100 µM, the GI50 (OVCAR-4 ovarian) was greater than 100 µM and the TGI (OVCAR-4 ovarian) was greater than 100 µM. It also gave a GI50 (SF-295 CNS) greater than 100 µM, a TGI (SF-295 CNS) greater than 100 µM and a GI50 (UO-31 renal) greater than 100 µM. The TGI (UO-31 renal) was greater than 100 µM, the GI50 (HOP-92 NSCLC) was greater than 100 µM and the TGI (HOP-92 NSCLC) was greater than 100 µM. It also gave a GI50 (NCI-H460 lung) greater than 100 µM, a TGI (NCI-H460 lung) greater than 100 µM and a GI50 (TK-10 renal) greater than 100 µM. It also gave a TGI (TK-10 renal) greater than 100 µM, a GI50 (SF-539 CNS) greater than 100 µM and a TGI (SF-539 CNS) greater than 100 µM. It also gave a GI50 (MDA-N) greater than 100 µM, a TGI (MDA-N) greater than 100 µM and a GI50 (SNB-75 CNS) greater than 100 µM. The TGI (SNB-75 CNS) was greater than 100 µM, the GI50 (HCC-2998 colon) was greater than 100 µM and the TGI (HCC-2998 colon) was greater than 100 µM. The GI50 (OVCAR-5 ovarian) was greater than 100 µM, the TGI (OVCAR-5 ovarian) was greater than 100 µM and the GI50 (SK-MEL-28 melanoma) was greater than 100 µM. The TGI (SK-MEL-28 melanoma) was greater than 100 µM, the GI50 (SK-OV-3 ovarian) was greater than 100 µM and the TGI (SK-OV-3 ovarian) was greater than 100 µM. The GI50 (PC-3 prostate) was greater than 100 µM, the TGI (PC-3 prostate) was greater than 100 µM and the GI50 (HT29 colon) was greater than 100 µM. The TGI (HT29 colon) was greater than 100 µM, the GI50 (BT-549 breast) was greater than 100 µM and the TGI (BT-549 breast) was greater than 100 µM. The GI50 (A498 renal) was greater than 100 µM, the TGI (A498 renal) was greater than 100 µM and the GI50 (NCI-H226 lung) was greater than 100 µM. It also gave a TGI (NCI-H226 lung) greater than 100 µM, a GI50 (MOLT-4 leukemia) greater than 100 µM and a TGI (MOLT-4 leukemia) greater than 100 µM. The GI50 (KM12 colon) was greater than 100 µM and the TGI (KM12 colon) was greater than 100 µM.
